Laboratory results reported in PubChem BioAssay AID1135 (Sanford-Burnham Center for Chemical Genomics, 2008).
This is a selection; strong and weak results do not stand in their true shares. Active and inactive are the calls of the source.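 How the source made its calls: active means over 50% inhibition of tissue-nonspecific alkaline phosphatase at 20 µM in the single-dose screen; inactive means the rest.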

By UniProt entry, the sequences of proteins in these tests, tags left out.
UniProt P05186, whole entry: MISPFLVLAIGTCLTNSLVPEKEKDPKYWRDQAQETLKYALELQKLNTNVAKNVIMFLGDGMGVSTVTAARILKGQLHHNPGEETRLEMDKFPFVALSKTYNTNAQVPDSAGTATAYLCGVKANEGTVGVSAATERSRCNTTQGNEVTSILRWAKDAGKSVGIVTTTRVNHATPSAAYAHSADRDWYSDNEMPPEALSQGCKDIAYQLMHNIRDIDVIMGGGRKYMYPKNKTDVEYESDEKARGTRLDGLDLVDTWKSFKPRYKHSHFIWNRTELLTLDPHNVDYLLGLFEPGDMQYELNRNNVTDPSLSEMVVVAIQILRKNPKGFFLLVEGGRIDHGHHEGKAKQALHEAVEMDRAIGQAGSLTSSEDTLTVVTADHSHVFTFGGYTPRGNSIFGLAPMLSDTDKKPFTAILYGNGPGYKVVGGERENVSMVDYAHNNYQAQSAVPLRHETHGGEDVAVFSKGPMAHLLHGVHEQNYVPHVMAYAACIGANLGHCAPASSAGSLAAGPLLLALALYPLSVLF

Molecular target: Alkaline phosphatase, tissue-nonspecific isozyme (Homo sapiens) (UniProt P05186)
Experiment: blockers of alkaline phosphatase TNAP activity – biochemical, luminescent, high phosphate acceptor level, uHTS, primary screen (AID 1135);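 further: plate controls were DMSO wells for no effect and EDTA-quenched wells as full inhibition for full effect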
Settings: purified TNAP, CDP-star luminescence, 1 M DEA; at 20 µM; hits give high values

| SMILES | inhibition |
| --- | --- |
| Cc1cc(C)cc(OP(C)(=O)Nc2ccc(C)cc2C)c1 (centres undefined) | inactive: 1.5% |
| CCOC(=O)c1ccc(NP(C)(=O)Oc2cc(C)cc(C)c2)cc1 (centres undefined) | inactive: -2.2% |
| Cc1cc(C)cc(OP(C)(=O)Nc2ccccn2)c1 (centres undefined) | inactive: -3% |
| Cc1ccc(C)c(NP(C)(=O)Oc2ccccc2)c1 (centres undefined) | inactive: -1.5% |
| CC1=NCCc2c1[nH]c1ccccc21.O=[N+]([O-])c1cc([N+](=O)[O-])c(O)c([N+](=O)[O-])c1 | inactive: 5.3% |
| CN1CCCCC1COC(=O)C1(O)c2ccccc2CCc2ccccc21 (centres undefined) | inactive: 1.4% |
| COc1ccccc1OP(C)(=O)Nc1c(C)cccc1C (centres undefined) | inactive: 1.5% |
| CP(=O)(Nc1ccc(SC(F)(F)F)cc1)Oc1ccccc1 (centres undefined) | inactive: -1.4% |
| CCCOc1ccc(NP(C)(=O)Oc2ccc(Cl)cc2)cc1 (centres undefined) | inactive: -2% |
| O=[N+]([O-])c1cc([N+](=O)[O-])c(-n2nnc3ccccc32)c([N+](=O)[O-])c1 | inactive: -0.3% |
| Cc1nc2ccc3ccccc3c2s1.O=[N+]([O-])c1cc([N+](=O)[O-])c(O)c([N+](=O)[O-])c1 | inactive: 3.4% |
| Cc1cccc(C)c1OP(C)(=O)Nc1ccc(SC(F)(F)F)cc1 (centres undefined) | inactive: 0.3% |
| CP(=O)(Oc1ccccc1)OC(c1ccccc1)C(F)(F)F (centres undefined) | inactive: -0.4% |
| CP(=O)(NC(=O)Nc1ccccc1)Oc1ccccc1 (centres undefined) | inactive: -8% |
| Cc1cc(C)cc(OP(C)(=O)Nc2ccc(SC(F)(F)F)cc2)c1 (centres undefined) | inactive: -1.1% |
| CCOP(C)(=S)SCC(=O)NC(C)C(=O)O (centres undefined) | inactive: -3.3% |
| CCOC(=O)c1ccc(NP(C)(=O)Oc2ccc(OC)cc2)cc1 (centres undefined) | inactive: -1.3% |
| CP(=O)(Nc1ccccn1)Oc1ccc(Cl)cc1 (centres undefined) | inactive: -4.6% |
| CP(=S)(Nn1cnnc1)Oc1ccccc1 (centres undefined) | inactive: -2.1% |
| COc1ccccc1OP(C)(=O)Nc1ccccc1 (centres undefined) | inactive: -5.7% |
| CP(=O)(Nc1ccccc1Br)Oc1ccccc1 (centres undefined) | inactive: -3.3% |
| CC(C)(C)c1ccc(OP(C)(=O)Nc2ccc(SC(F)(F)F)cc2)cc1 (centres undefined) | inactive: -4.4% |
| Cc1cccc(C)c1OP(C)(N)=O (centres undefined) | inactive: -4.9% |

| SMILES | inhibition |
| --- | --- |
| O=[N+]([O-])c1ccc2c(c1)C=Nc1ccccc1O2 | inactive: 16.7% |
| CCOC(=O)c1ccc(NP(C)(=O)Oc2ccccc2)cc1 (centres undefined) | inactive: -3.9% |
| COc1ccccc1OP(C)(=O)Nc1ccc(C)cc1 (centres undefined) | inactive: -2.5% |
| Cc1ccc(NP(C)(=O)Oc2ccccc2)c(C)c1 (centres undefined) | inactive: -4.7% |
| COc1ccccc1OP(C)(=O)Nc1cc(Cl)ccc1C (centres undefined) | inactive: 1.6% |
| COc1ccc(OP(C)(=O)Nc2cccc(F)c2)cc1 (centres undefined) | inactive: 1.1% |
| Cc1cc(C)cc(OP(C)(N)=O)c1 (centres undefined) | inactive: -7.7% |
| CCN(CC)CCCOC(=O)C(O)(c1ccccc1)c1ccccc1 | inactive: -4.3% |
| CN(C)CCOC(=O)C(O)(c1ccccc1)C1CCCC1 (centres undefined) | inactive: -1.9% |
| COc1ccc(OP(C)(=O)Nc2ccccn2)cc1 (centres undefined) | inactive: -5.7% |
| O=[N+]([O-])c1cc([N+](=O)[O-])c(Nc2ccccn2)c([N+](=O)[O-])c1 | inactive: 33.4% |
| Cc1c(NP(C)(=O)Oc2ccc(C(C)C)cc2)c(=O)n(-c2ccccc2)n1C (centres undefined) | inactive: -6.8% |
| CCc1ccc(OP(C)(=O)O)cc1 | inactive: -1.5% |
| CP(=O)(Nc1ccccn1)Oc1ccccc1 (centres undefined) | inactive: 1.7% |
| COc1ccccc1OP(C)(=O)Nc1ccc(C)cc1C (centres undefined) | inactive: -0.5% |
| Cc1cc(C)cc(OP(C)(=O)Nc2cccc(C(F)(F)F)c2)c1 (centres undefined) | inactive: -1.1% |
| COc1ccc(OP(C)(=O)Nc2ccccc2Br)cc1 (centres undefined) | inactive: -3.4% |
| COc1ccccc1OP(C)(=O)Nc1ccc(C)c(C)c1 (centres undefined) | inactive: 2% |
| Cc1nc2ccc3ccccc3c2o1.O=[N+]([O-])c1cc([N+](=O)[O-])c(O)c([N+](=O)[O-])c1 | inactive: 2.7% |
| CP(=O)(OCCOc1ccccc1)OCCOc1ccccc1 | inactive: -0.4% |
| CP(=O)(Nc1ccc(Cl)cc1Cl)Oc1ccccc1 (centres undefined) | inactive: -2.3% |
| CP(=O)(OC12CC3CC(CC(C3)C1)C2)OC12CC3CC(CC(C3)C1)C2 | inactive: -1.1% |
| CCOC(=O)c1ccc(NP(C)(=O)Oc2ccc(Cl)cc2)cc1 (centres undefined) | inactive: 0.4% |

| SMILES | inhibition |
| --- | --- |
| CCN(CC)CC(O)COC(=O)C(O)(c1ccccc1)C1CCCCC1 (centres undefined) | inactive: -3.8% |
| COc1ccc(OP(C)(=O)Nc2ccc(Br)cc2)cc1 (centres undefined) | inactive: -7.8% |
| CP(=O)(Oc1ccccc1)N1CCOC1=O (centres undefined) | inactive: -4.4% |
| CCc1ccc(OP(C)(=O)Nc2cccnc2)cc1 (centres undefined) | inactive: -1.8% |
| COc1ccccc1OP(C)(=O)Nc1c(C)n(C)n(-c2ccccc2)c1=O (centres undefined) | inactive: -3.3% |
| CP(=O)(Nc1ccc(Cl)cc1)Oc1ccc(F)cc1 (centres undefined) | inactive: -7% |
| CC(C)(C)c1ccc(OP(C)(=O)O)cc1 | inactive: 0.3% |
| COc1ccccc1OP(C)(=O)Nc1ccccc1Br (centres undefined) | inactive: 1.5% |
| CN(C)C(=O)c1c([N+](=O)[O-])cc([N+](=O)[O-])cc1[N+](=O)[O-] | inactive: -0.4% |
| CCOP(C)(=S)SCC(=O)NC(C)(CC)C(=O)O (centres undefined) | inactive: 0.3% |
| CP(=O)(Nc1ccc2c(c1)OCCO2)Oc1ccccc1 (centres undefined) | inactive: -0.9% |
| Cc1ccccc1NP(C)(=O)Nc1ccccc1C | inactive: -2.4% |
| COc1ccc(OP(C)(=O)Nc2cccc(Br)c2)cc1 (centres undefined) | inactive: -7.4% |
| COc1ccc(NP(C)(=O)Oc2ccccc2OC)cc1 (centres undefined) | inactive: -0.5% |
| CN(C)CCOC(=O)C(O)(c1ccccc1)C1CCCCC1 (centres undefined) | inactive: -0.2% |
| O=[N+]([O-])c1cc([N+](=O)[O-])c(NCC2CCS(=O)(=O)C2)c([N+](=O)[O-])c1 (centres undefined) | inactive: 7.4% |
| COc1ccc(OP(C)(=O)Nc2ccc(SC(F)(F)F)cc2)cc1 (centres undefined) | inactive: -9.3% |
| CCOC(=O)c1ccc(NP(C)(=O)Oc2ccc(F)cc2)cc1 (centres undefined) | inactive: -3.2% |
| CCN(CC)CCCOC(=O)C(O)(c1ccccc1)C1CCCCC1 (centres undefined) | inactive: 0.8% |
| CP(=O)(Nc1ccccc1)Oc1ccc(F)cc1 (centres undefined) | inactive: -3.9% |
| CC(C)c1ccc(OP(C)(=O)Nc2ccc(SC(F)(F)F)cc2)cc1 (centres undefined) | inactive: -1.7% |
| CP(=O)(Nc1ccccc1F)Oc1ccccc1 (centres undefined) | inactive: -8.7% |
| O=C(OCCN1CCN(CCOCc2ccccc2)CC1)C(O)(c1ccccc1)c1ccccc1 | inactive: -4.4% |
